Data from patent publication US6534482B1, “Expression vectors for stimulating an immune response and methods of using the same” (priority 1998, dated 2003).

Tested on: CTL response

CSCC[C@H](NC(=O)[C@@H](N)Cc1ccc(O)cc1)C(=O)N[C@@H](CC(=O)O)C(=O)N[C@@H](CC(=O)O)C(=O)N[C@H](C(=O)N[C@H](C(=O)N[C@@H](CC(C)C)C(=O)NCC(=O)N[C@H](C(=O)O)C(C)C)C(C)C)C(C)C
immunogenicity of the peptide administered in IFA (in words) (HLA transgenic mice): significant levels of CTL activity | Immunogenicity In Vivo (IFA): CTL Response (Geo. Mean ΔLU) (geometric mean of positive cultures, peptide with T helper peptide in IFA): 8.2 (2.3) ΔLU | Immunogenicity In Vivo (IFA): No. CTL-Positive Cultures (peptide 50 μg/mouse with T helper peptide in IFA s.c., positive/total cultures): 6/6
